Assay results taken from BindingDB's records for doi:10.1016/0028-3908(93)90181-2 (Boots Pharmaceuticals, 1993).

Amino acid sequences for entries named in this document (tags omitted).
UniProt P31652, whole entry: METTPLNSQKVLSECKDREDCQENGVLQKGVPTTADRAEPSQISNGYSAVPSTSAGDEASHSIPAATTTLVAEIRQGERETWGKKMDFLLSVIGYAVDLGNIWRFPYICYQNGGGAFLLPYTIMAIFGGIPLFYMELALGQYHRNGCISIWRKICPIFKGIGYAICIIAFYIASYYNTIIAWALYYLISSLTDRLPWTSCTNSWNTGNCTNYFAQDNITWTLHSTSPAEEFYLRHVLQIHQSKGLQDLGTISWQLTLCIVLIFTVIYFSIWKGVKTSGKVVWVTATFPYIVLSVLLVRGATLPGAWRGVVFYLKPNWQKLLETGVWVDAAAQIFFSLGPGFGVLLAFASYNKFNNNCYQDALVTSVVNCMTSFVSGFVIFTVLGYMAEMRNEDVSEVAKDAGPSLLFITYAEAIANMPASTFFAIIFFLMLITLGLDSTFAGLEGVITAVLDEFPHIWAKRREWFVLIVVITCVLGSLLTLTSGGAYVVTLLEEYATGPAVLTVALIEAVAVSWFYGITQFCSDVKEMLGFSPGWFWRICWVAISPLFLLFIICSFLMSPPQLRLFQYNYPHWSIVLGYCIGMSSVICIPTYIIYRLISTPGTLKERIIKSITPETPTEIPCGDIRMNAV

Target: Sodium-dependent serotonin transporter (Rattus norvegicus, UniProt P31652)

Compound	Ki [nM]
N[C@H]1CC[C@@H](c2ccc(Cl)c(Cl)c2)c2ccccc21	53.6
CNCCC=C1c2ccccc2CSc2ccccc21 [CAS_1154-09-2]	192
CC(C)CC(N(C)C)C1(c2ccc(Cl)cc2)CCC1 (centres undefined) [CAS_106650-56-0]	3130
CNC(CC(C)C)C1(c2ccc(Cl)cc2)CCC1 (centres undefined) [DESMETHYLSIBUTRAMINE]	19.3
